# Measured values: PubChem BioAssay AID743126 (The Scripps Research Institute Molecular Screening Center, 2013)
# Chains of the proteins cited; added tags and fusions are not shown.
# UniProt Q9NZ20, whole entry: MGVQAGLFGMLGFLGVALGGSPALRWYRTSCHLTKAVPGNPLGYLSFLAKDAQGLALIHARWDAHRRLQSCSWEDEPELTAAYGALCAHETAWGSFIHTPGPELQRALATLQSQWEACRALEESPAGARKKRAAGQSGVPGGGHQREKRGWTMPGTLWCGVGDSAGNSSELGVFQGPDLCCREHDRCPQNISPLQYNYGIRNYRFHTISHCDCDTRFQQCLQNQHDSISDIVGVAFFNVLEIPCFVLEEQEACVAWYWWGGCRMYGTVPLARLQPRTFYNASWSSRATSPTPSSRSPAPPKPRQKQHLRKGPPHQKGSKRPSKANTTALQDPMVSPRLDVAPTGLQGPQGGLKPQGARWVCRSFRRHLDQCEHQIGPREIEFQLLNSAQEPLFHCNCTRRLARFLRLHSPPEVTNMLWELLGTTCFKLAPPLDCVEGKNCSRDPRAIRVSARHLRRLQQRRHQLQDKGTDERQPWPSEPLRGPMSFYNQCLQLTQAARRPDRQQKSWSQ
# Only a part is listed here, and it is no random draw. Activity calls are given as the source filed them.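 The calls were made as follows: active = inhibition above mean plus 3 SD of compounds lying within the high and low control bounds (cut at about 19% in these data); inactive = the rest.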
# Molecular target: Group 3 secretory phospholipase A2 (Homo sapiens) (UniProt Q9NZ20)
# Experiment: human group III sPLA2 inhibitors, primary screen, biochemical, QFRET, BODIPY PC-A2 liposome substrate (AID 743126);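 also: 0% = median of test compound wells and 100% = no enzyme DMSO wells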
# Settings: QFRET BODIPY PC-A2 liposome hydrolysis, fluorescence; at 12.2 µM; stronger effect = higher value
row,SMILES,inhibition
1,Cc1cc(SC(NC=O)C(Cl)(Cl)Cl)ncn1 (stereo unspecified),inactive: -0.73%
